Molecular target: GST-PHAX (Homo sapiens (Human), UniProt Q9H814)
Assay: GST pull-down with western blot; HeLa nuclear extract with ATP present

B1: FLAG-DBP5 (protein)
chain: MATDSWALAVDEQEAAAESLSNLHLKEEKIKPDTNGAVVKTNANAEKTDEEEKEDRAAQSLLNKLIRSNLVDNTNQVEVLQRDPNSPLYSVKSFEELRLKPQLLQGVYAMGFNRPSKIQENALPLMLAEPPQNLIAQSQSGTGKTAAFVLAMLSQVEPANKYPQCLCLSPTYELALQTGKVIEQMGKFYPELKLAYAVRGNKLERGQKISEQIVIGTPGTVLDWCSKLKFIDPKKIKVFVLDEADVMIATQGHQDQSIRIQRMLPRNCQMLLFSATFEDSVWKFAQKVVPDPNVIKLKREEETLDTIKQYYVLCSSRDEKFQALCNLYGAITIAQAMIFCHTRKTASWLAAELSKEGHQVALLSGEMMVEQRAAVIERFREGKEKVLVTTNVCARGIDVEQVSVVINFDLPVDKDGNPDNETYLHRIGRTGRFGKRGLAVNMVDSKHSMNILNRIQEHFNKKIERLDTDDLDEIEKIAN
Q: Does B1 bind?
A: no binding
